Apparent affinities of Ab-14 variants for a coronavirus HR2 peptide

Target: peptide PDVDLGDISGINAS, taken from heptad repeat 2 (HR2) of SARS-CoV-2 spike.

The variants keep the heavy chain, the linker and the frameworks of Ab-14 (scFv order VH, a 15-residue (Gly4Ser)3 linker, VL).
VH: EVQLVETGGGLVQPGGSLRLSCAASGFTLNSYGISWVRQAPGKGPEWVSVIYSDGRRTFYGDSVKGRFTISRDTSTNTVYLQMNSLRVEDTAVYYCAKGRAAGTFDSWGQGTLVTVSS
VL: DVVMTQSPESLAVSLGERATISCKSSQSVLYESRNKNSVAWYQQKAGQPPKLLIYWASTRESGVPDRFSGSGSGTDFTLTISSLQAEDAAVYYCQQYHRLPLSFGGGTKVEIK

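AAYL50 was designed without a model: most single CDR substitutions and a random sample of double and triple ones. AlphaSeq pools MATa yeast showing the antibodies with MATalpha yeast showing the peptide. Mating (16 h, 30 °C) was followed by selection of diploids and sequencing of their barcodes. Scores were corrected for input abundance and mapped to Kd with protein pairs of known affinity run in the same pool. Each pool was mated in three replicate cultures.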

Variants are written as CDR1, CDR2 and CDR3 of the light chain (limits as in the source). Parent: KSSQSVLYESRNKNSVA, WASTRES, QQYHRLPLS.
Affinities are written as log10 Kd with Kd in nM; a lower number is a better binder.
Averages over replicates are reported, and they cover detected replicates only.
An entry "ND" has no value in the source: the pair was not observed among the diploids in that replicate. This suggests poor binding but is not conclusive.
Empty control strains, which show no peptide, gave a signal in 18% of pairings with library AAYL50; the median was 4.19 and 95% of these signals were weaker than 2.99. No background was subtracted. For each scFv, signals with the empty controls are counted beside the result, with their mean in brackets.

CDR-L1,CDR-L2,CDR-L3,"log10 Kd, replicates","log10 Kd (nM), mean",control signals
KSSGSKLYESRNKNSVA,WASTRES,QQYHRRPLS,1.56 1.66 1.66,1.63,2 of 9 (4.76)
KSSQSVLYESRNKNSQA,WASTRED,QQYHRQPLS,3.32 ND ND,3.32,0 of 9
KLSQSVLYHSRNKNSVA,WASTRES,QQYHRLPLS,0.48 0.73 0.46,0.56,0 of 9
KSSQSVLYESFNKNSVA,WASTRES,QIYHRLPLV,1.49 0.96 0.84,1.09,0 of 9
KSPQSVLYESRNKQSVA,AASTRES,QQYHRLPLS,0.04 0.17 -0.09,0.04,2 of 9 (4.46)
KSSNSVLYESRNRNSVA,WASTRES,QSYHRLPLS,2.22 2.47 3.08,2.59,4 of 9 (4.01)
KSSQSVAYESRNKNSVG,WASTRES,QQAHRLPLS,ND ND ND,ND,3 of 9 (5.02)
KSSQSVLYESRNKMSVA,WASTRES,QNYHRLPLS,ND ND ND,ND,0 of 9
KSSQPVLYESRNKNSEA,WASTRLS,QQYHRLPLS,ND 4.79 4.52,4.65,2 of 9 (4.41)
KSSQSVLYESRNKNSVA,WASTRES,SLYHHLPLS,ND ND ND,ND,1 of 9 (4.75)
KSSQSLLYESRNKNSVA,WASTRAS,QQSHRLPLS,3.12 3.55 2.97,3.21,1 of 9 (4.12)
KSSQSVLYESLNKNSVA,WASTSES,QPYHRLPLS,1.49 1.59 1.70,1.59,3 of 9 (3.92)
KLSQSVLYESRNKNSVA,WASTRES,QIYHVLPLS,2.32 4.10 ND,3.21,0 of 9
KSSQSVLYESRNKQSVA,WASIRES,QQYHREPLS,ND ND ND,ND,3 of 9 (3.57)
KSSQSVLYESRNKNWVA,WASTRES,QQYHREPLS,ND ND ND,ND,3 of 9 (3.59)
KSSQSVLYESLNKNSVA,WQSTRES,QQYHRCPLS,ND 4.06 ND,4.06,1 of 9 (4.51)
KSNQSVLYESRNKNSVA,WASTRES,QQYHYLPLS,2.36 2.25 3.13,2.58,1 of 9 (3.32)
KSSQSVLYESRNFNCVA,WASTRES,QQYHYLPLS,ND 3.55 ND,3.55,1 of 9 (3.19)
KSSQSVLLESRNKNSVA,VASTRES,QQYHRLPLS,ND ND ND,ND,0 of 9
KSSQSVLYESRNKNTVA,WTSTPES,QQYHRLPLS,ND ND 3.38,3.38,0 of 9
KSSQSVLYESRNKYSNA,WASTRES,RQYHRLPLS,ND ND ND,ND,0 of 9
KSSQSTLMESRNKNSVA,WASTRFS,QQYHRLPLS,0.46 1.76 2.37,1.53,0 of 9
KSSSSVLYESNNKNSIA,WASTRES,QQYHRLPLS,0.34 0.79 0.54,0.56,0 of 9
KSSQSLLYVSRNKNSVA,WASTRNS,QQYHRLPLS,0.93 1.43 1.51,1.29,0 of 9
PSSQSVLYESRNKNSPA,RASTRES,QQYHRLPLS,ND 3.07 ND,3.07,4 of 9 (3.53)
KPSQSVLYESRNKNSVA,IASTRES,QQYHRLPAS,ND ND ND,ND,2 of 9 (4.51)
KSSQSCLLESRNKNSVA,WASTRES,QQYYRLPLS,0.74 0.88 0.78,0.80,1 of 9 (4.11)
KSSQSVLYESRNKFSVA,WASEREY,QQYHRLPLS,ND ND ND,ND,0 of 9
PSSNSVLYESRNKNSVA,WASTRES,QQYKRLPLS,ND 2.82 ND,2.82,0 of 9
KSSQSVLYESRNKNWVA,WASTRPS,QQKHRLPLS,ND ND ND,ND,3 of 9 (3.81)
KSSQSVLYESRNKNSVA,WASGRES,QQYHALQLS,ND ND 4.46,4.46,3 of 9 (3.39)
KSSQSVLYESRNKLSVA,WASTSES,QQYHRDPLS,ND ND ND,ND,0 of 9
KSSQSVLYCSRNKNSVA,WASTDES,QQYHRLPLS,ND 4.95 ND,4.95,2 of 9 (3.78)
KSSQSVLYESRNKNSVA,NASVRPS,QQYHRLPLS,0.44 0.66 0.50,0.53,5 of 9 (5.30)
KSSQSVLGESYNKNHVA,WASTRES,QQYHRLPLS,0.65 0.74 1.07,0.82,4 of 9 (4.90)
KSSQSVLYESRMKDSVA,WASTRES,QQYHRLPLC,4.08 3.30 4.42,3.93,2 of 9 (3.37)
KSSQSVLYESRNKNSVA,WALDRES,QNYHRLPLS,2.33 2.56 ND,2.45,0 of 9
KSSQSVLYSSRNTNSVA,WASTRYS,QQYHRLPLS,1.58 1.55 1.74,1.62,5 of 9 (5.21)
KSSQSVLYESRTSNSVA,WASTRES,QQYHRLPLS,1.59 1.57 1.50,1.55,0 of 9
KSSQSVLYEVRNKNSVL,NASTRES,QQYHRLPLS,ND 3.57 4.70,4.13,2 of 9 (4.27)
KSSQSVLYESREKHSVA,WASTRES,QQYHRLPLS,0.67 0.87 0.81,0.78,4 of 9 (4.78)
KSSQSVLFESRNVNSVA,WASTRES,QQYHRLVLS,ND 4.52 ND,4.52,1 of 9 (4.80)
KSSQSVGYESRNKNSVA,WASTREN,QQYHHLPLS,ND ND ND,ND,0 of 9
KSSQSVLYESRNKNLVA,WASTRES,LQYHRLPLM,5.26 ND 5.83,5.55,2 of 9 (3.73)
ASSQSVLYESREKNSVA,WASTRES,QQYHRLALS,ND ND ND,ND,2 of 9 (4.36)
GSSQSVLYESRNKNSVA,WASDRES,QQQHRLPLS,6.29 5.44 5.20,5.65,3 of 9 (4.18)
KSSQSVLYESRNKNSVA,TESTRES,QTYHRLPLS,3.65 ND 3.99,3.82,3 of 9 (4.22)
KSSQSVLYESRNKNSGA,AASTREF,QQYHRLPLS,4.63 ND ND,4.63,1 of 9 (4.42)
KSSQSVLYESRNKNRVA,WASTRES,QQRHRLVLS,ND ND ND,ND,1 of 9 (4.43)
KSSQSVLNESRNKNSVA,WASTRES,QQYHALPLK,1.63 1.86 1.73,1.74,0 of 9
KSHQSVDYESRNKNSVA,WASTDES,QQYHRLPLS,ND ND 5.66,5.66,5 of 9 (4.01)

Data: MIT Lincoln Laboratory AlphaSeq set, Engelhart et al. 2022, doi:10.1038/s41597-022-01779-4, as distributed in FLAb.